Assay: Anti-oxidation performance of albumin (Fenton reaction hydroxyl radical, ESR)
Format: physicochemical
Conditions: albumin 10 mg/ml, radical intensity by ESR, compared to reduced albumin
Description: For the purpose of examining whether an in vivo redox state-improving effect, which is one of the functions of albumin, is influenced by an increase in the oxidized albumin ratio, the anti-oxidation performance of albumin was measured. Samples showing 3 kinds of HSA(ox) % below were prepared from albumin (HSA) purified from normal human plasma and used for the evaluation.
1. reduced albumin: purified HSA. HSA(ox) %=21.5 2. oxidized albumin: prepared by artificially forming a disulfide bond with cysteine in the 34-position cysteine residue of HSA(red). HSA(ox) %=92.0 3. post-preservation albumin: prepared by incubating plasma at 37° C. for 18 hr to increase oxidized albumin ratio, followed by purification. HSA(ox) %=45.6
The anti-oxidation performance of albumin was determined by generating hydroxyl radical in vitro by a Fenton reaction and quantifying the intensity of generated radical with an ESR (Electron Spin Resonance) measurement device in the co-presence of various albumins.
25 μM FeSO4, 5 mM DMPO (Spin Trapping Agent) and 100 μM DETAPAC (ferrous ion chelating agent) were mixed in a test tube, and various albumins were added thereto at a concentration of 10 mg/ml. Ten seconds later, 0.5 mM H2O2 was added and they were mixed well. The intensity of hydroxyl radical generated in 1 min from 45 sec later was measured by ESR (JES-FR80S, JEOL Ltd.). […]

oxidized albumin: prepared by artificially forming a disulfide bond with cysteine in the 34-position cysteine residue of HSA(red). HSA(ox) %=92.0
ability to eliminate hydroxyl radical: weak ability to eliminate hydroxyl radical as compared to reduced albumin
